Experimental data as given in patent publication US5047534A (Merrell Dow Pharmaceuticals Inc., priority 1990, dated 1991).
Where two headings read alike, the source gives them in different places.

Protein sequences, listed by entry. Tags and fused reporters are not part of them.
UniProt P25099, whole entry: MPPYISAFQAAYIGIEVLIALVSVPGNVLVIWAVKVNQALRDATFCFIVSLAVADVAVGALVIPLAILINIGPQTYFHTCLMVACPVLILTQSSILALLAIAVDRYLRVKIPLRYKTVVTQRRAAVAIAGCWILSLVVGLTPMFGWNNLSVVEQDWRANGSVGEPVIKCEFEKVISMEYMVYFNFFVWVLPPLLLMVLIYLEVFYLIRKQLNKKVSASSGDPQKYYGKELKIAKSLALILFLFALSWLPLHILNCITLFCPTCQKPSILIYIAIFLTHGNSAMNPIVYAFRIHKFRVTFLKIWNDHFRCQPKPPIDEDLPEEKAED

Key:
[1] = molecular target: T1, Adenosine A-1 receptor (Rattus norvegicus, UniProt P25099); assay: biochemical
[2] = molecular target: T1, Adenosine A-1 receptor

Row | Ki [1] [nM] | Ki [2] [nM] | SMILES
1 | 61.8 |  | CCCn1c(=O)c2[nH]c(C3Cc4ccccc4C3)nc2n(CCC)c1=O [3,7-dihydro-8-(2-indanyl)-1,3-dipropyl-1H-purine-2,6-dione]
2 |  | 6.9 | CCCn1c(=O)c2[nH]c([C@H](C)Cc3ccccc3)nc2n(CCC)c1=O [3,7-dihydro-8-[(1R)-1-methyl-2-phenylethyl]-1,3-dipropyl-1H-purine-2,6-dione]
3 |  | 60.7 | CCCn1c(=O)c2[nH]c([C@@H](C)Cc3ccccc3)nc2n(CCC)c1=O [3,7-dihydro-8-[(1S)-1-methyl-2-phenylethyl]-1,3-dipropyl-1H-purine-2,6-dione]
